{"source": "PubChem BioAssay AID910", "about": "(National Center for Advancing Translational Sciences (NCATS), 2007)", "note": "The list shows a part of the results, in another mix than the full data. Active and inactive are the calls of the source. The call rests on the fitted dose curve; in most records, active means well fitted activation curve with a large enough effect; inconclusive means small, poorly fitted or top-dose-only effect; inactive means flat fitted curve, though single readings scatter.", "data": [{"test": "Confirmation and Secondary Assay for Modulators of Hemoglobin Beta Chain Splicing at IVS2 654 locus;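 further: HeLa cells stably carrying EGFP split by mutant beta-globin IVS2-654 intron; per-well total GFP intensity by laser scanning cytometry after 2-day treatment; % of control where 0% means no effect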", "conditions": "HeLa EGFP-654 splicing reporter, GFP fluorescence, 48 h; at 46.1 µM (top of the series) unless noted", "description": "NIH Chemical Genomics Center [NCGC] NIH Molecular Libraries Screening Centers Network [MLSCN] MLSCN Grant: 1 X01 MH080684-01 PI Name: Dr. Ryszard Kole NCGC Assay Overview: Modulation of Alternative Splicing as Therapy Abnormal splicing is associated with a number of diseases, including cancer and genetic diseases such as cystic fibrosis, muscular dystrophy and beta-thalassemia. Alteration of disease associated splicing patterns provides a promising target for treatment. […] Mutations in the second intron of the b-globin gene at positions 654 or 705 are clinically relevant and cause mis-splicing which results in an out of frame gene product. […] EGFP-654 HeLa Cells as screen system. HeLa cell lines were stably transfected with a construct in which the EGFP (enhanced green fluorescent protein) cDNA was interrupted by the second intron of the beta-globin gene (IVS2-654). The ISV2 intron contains mutations which cause mis-splicing of EGFP and premature termination of EGFP which results in a nonfluorescent protein product. […]\nNCGC Assay Protocol Summary: Confirmatory Screening. […] Plates were read in the Acumen Explorer (TTP Labtech) using 488 nm laser excitation and 500-520 nm emission PMT filter in a 1 x 8 uM capture mode. Fluorescnet objects ranging in size from 5 to 250 uM were measured and the total peak GFP intensity for each well was used for data analysis. […]", "values": [{"compound": "CCN(CCCl)Cc1ccccc1C", "activation (splicing correction)": "inactive: 0.322% [at 38.3 µM]"}, {"compound": "OCCSCCO", "activation (splicing correction)": "inactive: 1.17%"}]}]}
